Test results: patent US20120207676

By UniProt entry, the sequences of proteins in these tests, tags left out.
Neurotensin receptor NTS1 (HT29 cells/membranes) (human), P30989, UniProt P30989, whole entry: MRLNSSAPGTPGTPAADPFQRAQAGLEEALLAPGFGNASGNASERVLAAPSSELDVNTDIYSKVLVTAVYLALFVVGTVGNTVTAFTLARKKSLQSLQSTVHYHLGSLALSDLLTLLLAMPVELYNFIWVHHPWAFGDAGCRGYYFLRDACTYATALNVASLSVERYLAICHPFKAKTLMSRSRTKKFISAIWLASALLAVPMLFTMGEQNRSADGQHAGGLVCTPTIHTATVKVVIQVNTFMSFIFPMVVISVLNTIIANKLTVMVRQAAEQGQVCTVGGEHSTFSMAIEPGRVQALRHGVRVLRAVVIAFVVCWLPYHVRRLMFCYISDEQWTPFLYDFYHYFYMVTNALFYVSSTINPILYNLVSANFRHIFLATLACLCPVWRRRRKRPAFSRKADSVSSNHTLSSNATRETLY

Columns and labels:
[1] = biological target: T1, Neurotensin receptor NTS1 (HT29 cells/membranes) (human), P30989; test: competition, HT29 cells; conditions: modification not given
[2] = biological target: T1, Neurotensin receptor NTS1 (HT29 …); test: competition, HT29 membranes; conditions: modification not given

B1: [Lys6(DTPA(In))]-NT (peptide)
chain: ELYENKPRRPYIL
- IC50 [1]: 17.3 nM
- Ki [2]: 1.77 nM
